Experimental data from BindingDB's records for doi:10.1016/s0960-894x(00)00601-6 (National Cancer Istitute-Frederick Cancer Research and …, 2001).

Assay: Inhibition of RANTES-induced migration of human embryonic kidney (CCR1/HEK) cell transfectants

In the case of `CSCC[C@H](NC(=O)c1cc(C(=CCC[C@H]2CC[C@@]3(C)C(CC[C@H]4[C@@H]5CC[C@H](C(C)CCCC(C)C)[C@@]5(C)CC[C@@H]43)C2)c2cc(Cl)c(O)c(C(=O)N[C@@H](CCSC)C(=O)O)c2)cc(Cl)c1O)C(=O)O` (stereo partly specified) [2-(5-{1-[3-(1-carboxy-3-methylsulfanylpropylcarbamoyl)-5-chloro-4-hydroxyphenyl]-4-[1-(1,5-dimethylhexyl)-9a,11a-dimethylperhydrocyclopenta[a]phenanthren-7-yl]-1-butenyl}-3-chloro-2-hydroxyphenylcarboxamido)-4-methylsulfanylbutanoic acid], the IC50 is reported as 12.7 µM.
